Experimental data published in ChEMBL document CHEMBL1125016.

Chains of the proteins cited; added tags and fusions are not shown. Lines headed by an entry give the natural chain unless they say otherwise; changes in a name come on top.
UniProt P61169, whole entry, looked up: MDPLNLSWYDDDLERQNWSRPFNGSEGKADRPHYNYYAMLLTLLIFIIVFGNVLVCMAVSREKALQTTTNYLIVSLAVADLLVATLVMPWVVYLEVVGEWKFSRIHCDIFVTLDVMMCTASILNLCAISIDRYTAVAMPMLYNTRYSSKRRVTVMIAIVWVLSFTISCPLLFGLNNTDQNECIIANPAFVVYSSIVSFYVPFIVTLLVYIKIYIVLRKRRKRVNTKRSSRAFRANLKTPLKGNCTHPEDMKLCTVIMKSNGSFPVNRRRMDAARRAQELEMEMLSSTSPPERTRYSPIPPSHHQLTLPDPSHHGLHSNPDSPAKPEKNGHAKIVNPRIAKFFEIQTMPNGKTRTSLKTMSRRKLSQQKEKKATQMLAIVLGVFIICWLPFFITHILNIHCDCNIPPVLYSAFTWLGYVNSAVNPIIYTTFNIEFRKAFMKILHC
UniProt P41144: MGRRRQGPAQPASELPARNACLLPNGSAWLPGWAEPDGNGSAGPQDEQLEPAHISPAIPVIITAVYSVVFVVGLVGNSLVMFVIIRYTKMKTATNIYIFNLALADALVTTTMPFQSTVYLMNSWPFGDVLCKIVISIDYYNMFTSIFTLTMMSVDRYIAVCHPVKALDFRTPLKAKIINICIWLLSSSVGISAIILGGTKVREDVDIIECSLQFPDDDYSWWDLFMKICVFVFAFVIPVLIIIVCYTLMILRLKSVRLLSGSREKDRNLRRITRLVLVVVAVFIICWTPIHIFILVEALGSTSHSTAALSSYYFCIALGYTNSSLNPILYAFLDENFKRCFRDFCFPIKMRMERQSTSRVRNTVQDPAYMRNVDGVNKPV

Assays:
D(2) dopamine receptor [1] = biological target: T1, D(2) dopamine receptor (Rattus norvegicus, UniProt P61169); assay: Affinity of compound towards dopamine-D2 receptor was determined in presence of [3H](-)-sulpiride radioligand
[2] = biological target: T2, Kappa-type opioid receptor (Cavia porcellus, UniProt P41144); assay: Affinity of compound towards Opioid receptor kappa 1 was determined in presence of [3H]bremazocine radioligand
[3] = biological target: T2, Kappa-type opioid receptor; assay: Affinity of compound towards Opioid receptor kappa 1 was determined in presence of [3H]U-69593 radioligand
[4] = biological target: T2, Kappa-type opioid receptor; assay: Affinity of compound towards Opioid receptor kappa 1 was determined in presence of [3H]U-69593. radioligand
[5] = biological target: T2, Kappa-type opioid receptor; assay: Affinity of compound towards Opioid receptor kappa 1 labeled with [3H]bremazocine.
D(2) dopamine receptor [6] = biological target: T1, D(2) dopamine receptor; assay: Affinity of compound towards Dopamine receptor D2 was determined in presence of [3H](-)-sulpiride radioligand

## CN(C(=O)Cc1ccc2ccccc2c1)[C@@H]1CCCC[C@@H]1N1CCCC1
D(2) dopamine receptor [1]
  Ki: 7350 nM
[2]
  Ki: 1440 nM
[3]
  Ki: 2210 nM

## CN(CCc1ccc(Cl)c(Cl)c1)[C@@H]1CCCC[C@@H]1N1CCCC1
[4]
  Ki: 3790 nM

## CN(C(=O)Cc1ccc2c(c1)OCO2)[C@H]1CCCC[C@H]1N1CCCC1
[5]
  Ki: 6990 nM
[4]
  Ki: 3630 nM

## CN(C(=O)Cc1ccc2ccccc2c1)[C@H]1CCCC[C@H]1N1CCCC1
[4]
  Ki: 1670 nM

## CN(C(=O)Cc1ccc2ccccc2c1)C1CCCCC1N1CCCC1 (stereo not given)
[4]
  Ki: 1620 nM

## CN(C(=O)Cc1cc(Cl)c(Cl)cc1N)[C@@H]1CCCC[C@@H]1N1CCCC1
[2]
  Ki: 523 nM
D(2) dopamine receptor [6]
  Ki: 1540 nM
